Where two headings read alike, the source gives them in different places.
Test system: C57BL/6J mice
Details: 10 mg/kg, i.p., 1 h before the 4 h session, vs saline

CO[C@H](C)[C@H](N)CN(C(=O)[C@@H]1C[C@H]1c1ccc(F)cn1)c1ccc(-c2ccc(OC(C)C)cc2)cc1.Cl [Compound 30a, (1R,2R)-N-[(2R,3R)-2-Amino-3-methoxybutyl]-2-(5-fluoropyridin-2-yl)-N-[4′-(propan-2-yloxy)-[1,1′-biphenyl]-4-yl]cyclopropane-1-carboxamide Dihydrochloride]
alcohol intake in the DID procedure: attenuated alcohol drinking | alcohol intake in the DID procedure (listed as RTI-122): significantly attenuates

Reference: publication PMC9974843 (2023)
